The values that follow are results of earlier work, collected in patent US9052308B2 (The General Hospital Corporation, priority 2011, dated 2015).

For this data set the following is noted: circulation.

In the case of vitamin D, the “fraction of circulating vitamin bound to albumin” value is listed as 10-15% and the “fraction of circulating vitamin bound to vitamin D binding protein” value is listed as 85-90%.
